PMC6530635, “A Novel Single-Site Mutation in the Catalytic Domain of Protoporphyrinogen Oxidase IX (PPO) Confers Resistance to PPO-Inhibiting Herbicides” (Frontiers in Plant Science, 2019)

How the values were obtained:
[1] = system: Amaranthus palmeri (Palmer amaranth) populations MIS-D, R39P, R43P and SS; assay type: in vivo
[2] = system: Amaranthus palmeri R39P population; assay type: in vivo; details: R39P F1 population; 2X recommended dose; 21 DAT; 25 seedlings
[3] = system: Amaranthus palmeri MIS-D population; design: method as in Salas-Perez et al., 2017; details: 1X dose, ref Salas-Perez et al., 2017, cited from earlier work

Compound: CS(=O)(=O)NC(=O)c1cc(Oc2ccc(C(F)(F)F)cc2Cl)ccc1[N+](=O)[O-] [Fomesafen]
- R/S (resistance level, ED50 relative to SS) ([1]; MIS-D vs SS): 11 fold
- Kill of resistant populations at 2X dose ([1]; MIS-D, R39P, R43P, 2X dose (528 g ai ha^-1)): None of the resistant populations were killed 100%
- R/S (resistance level, ED50 relative to SS) ([1]; R39P vs SS): 12 fold
- R/S (resistance level, ED50 relative to SS) ([1]; R43P vs SS): 16 fold
- Frequency of resistant plants [2]: 12%

Compound: CC(C)N(C)S(=O)(=O)NC(=O)c1cc(-n2c(=O)cc(C(F)(F)F)n(C)c2=O)c(F)cc1Cl [Saflufenacil]
- Frequency of resistant plants [2]: 12%
- Frequency of resistant plants ([3]; MIS-D field population): 0%
- Mortality ([3]; MIS-D): > 90%

Read-outs that look alike come from different tables or passages of the source.
